How the values were obtained:
[1] = biological target: PDE3A catalytic domain (PDE3Acat) (Homo sapiens, UniProt Q14432); assay: Inhibition of phosphodiesterase activity, [3H]-cAMP hydrolysis, recombinant PDE3Acat; format: biochemical; details: read-out: IC50(μmol/L) PDE3, cAMP 2 μmol/L
PDE4Bcat = PDE4Bcat (Homo sapiens, UniProt Q07343); assay: Inhibition of phosphodiesterase activity, [3H]-cAMP hydrolysis, recombinant PDE4Bcat; format: biochemical; details: read-out: IC50(μmol/L) PDE4, cAMP 2 μmol/L
[2] = system: histamine-induced bronchoconstriction; assay: Histamine-induced bronchoconstriction in guinea pigs; format: in vivo, guinea pig; details: 30 seconds after administration, histamine 12.5 μg/kg i.v.
PDE5Acat = PDE5Acat (Homo sapiens, UniProt O76074); assay: Inhibition of phosphodiesterase activity, [3H]-cGMP hydrolysis, recombinant PDE5Acat; format: biochemical; details: read-out: IC50(μmol/L) PDE5, cGMP 2 μmol/L
PDE10A1 = PDE10A1 (Homo sapiens, UniProt Q9Y233); assay: Inhibition of phosphodiesterase activity, [3H]-cAMP hydrolysis, recombinant PDE10A1; format: biochemical; details: read-out: IC50(μmol/L) PDE10; human recombinant PDE10A1, cAMP 0.2 μmol/L
[3] = values in brackets: test compound 0.1 mg/kg, i.v.

Protein sequences, listed by entry. Tags and fused reporters are not part of them. Residues count along the entry.
UniProt Q14432, 674-1093 limits assumed: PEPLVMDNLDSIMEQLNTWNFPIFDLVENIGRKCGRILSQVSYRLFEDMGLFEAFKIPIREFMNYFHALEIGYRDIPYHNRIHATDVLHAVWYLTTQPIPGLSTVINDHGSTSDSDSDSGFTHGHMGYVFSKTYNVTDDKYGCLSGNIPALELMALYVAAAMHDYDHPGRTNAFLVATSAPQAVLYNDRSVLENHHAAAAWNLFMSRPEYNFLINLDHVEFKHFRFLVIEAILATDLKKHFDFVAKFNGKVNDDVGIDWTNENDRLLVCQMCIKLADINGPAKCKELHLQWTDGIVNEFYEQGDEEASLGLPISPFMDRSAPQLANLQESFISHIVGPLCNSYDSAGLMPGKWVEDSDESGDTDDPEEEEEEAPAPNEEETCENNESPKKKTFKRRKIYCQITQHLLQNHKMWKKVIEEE
UniProt Q07343, 330-659 limits assumed: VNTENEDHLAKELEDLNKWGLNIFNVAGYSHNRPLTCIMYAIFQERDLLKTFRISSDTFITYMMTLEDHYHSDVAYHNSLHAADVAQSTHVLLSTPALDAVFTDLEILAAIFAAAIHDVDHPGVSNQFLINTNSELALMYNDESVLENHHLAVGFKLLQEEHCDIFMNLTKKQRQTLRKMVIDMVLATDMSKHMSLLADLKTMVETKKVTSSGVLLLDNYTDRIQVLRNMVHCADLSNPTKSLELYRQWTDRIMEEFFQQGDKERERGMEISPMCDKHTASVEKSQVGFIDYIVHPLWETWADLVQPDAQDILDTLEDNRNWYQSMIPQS
UniProt Q9Y233, 1-779 isoform 1: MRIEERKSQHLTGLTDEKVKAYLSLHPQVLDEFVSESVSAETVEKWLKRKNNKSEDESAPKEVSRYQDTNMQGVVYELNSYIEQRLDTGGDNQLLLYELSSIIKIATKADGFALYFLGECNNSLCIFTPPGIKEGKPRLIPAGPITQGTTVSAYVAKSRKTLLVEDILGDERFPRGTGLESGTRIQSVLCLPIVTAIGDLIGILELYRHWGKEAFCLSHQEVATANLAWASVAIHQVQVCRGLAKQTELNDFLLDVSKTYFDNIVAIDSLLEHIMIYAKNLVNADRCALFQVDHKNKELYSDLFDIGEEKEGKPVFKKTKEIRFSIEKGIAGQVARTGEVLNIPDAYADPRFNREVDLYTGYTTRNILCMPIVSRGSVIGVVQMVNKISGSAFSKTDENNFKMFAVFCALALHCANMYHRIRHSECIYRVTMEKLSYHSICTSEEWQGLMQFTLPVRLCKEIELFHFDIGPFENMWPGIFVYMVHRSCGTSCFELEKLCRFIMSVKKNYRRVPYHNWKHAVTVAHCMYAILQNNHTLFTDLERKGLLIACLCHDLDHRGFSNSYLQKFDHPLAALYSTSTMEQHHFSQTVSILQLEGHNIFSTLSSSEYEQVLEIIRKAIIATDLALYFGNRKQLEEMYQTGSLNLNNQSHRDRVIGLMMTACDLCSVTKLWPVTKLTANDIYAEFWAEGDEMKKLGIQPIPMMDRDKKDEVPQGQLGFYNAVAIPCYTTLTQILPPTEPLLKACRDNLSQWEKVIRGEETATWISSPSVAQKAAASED

Row | Compound | IC50 [1] [µmol/L] | IC50 (PDE4Bcat) [µmol/L] | % inhibition of histamine-induced bronchoconstriction [2, 3] | IC50 (PDE5Acat) [µmol/L] | IC50 (PDE10A1) [µmol/L] | % inhibition of histamine-induced bronchoconstriction ([2]; test compound 1 mg/kg i.v.)
1 | CCOc1ccc(C2=NN(Cc3cccnc3)C(=O)CC2C)c2cc(C(F)(F)F)nn12 (stereo not drawn) | > 10 | 0.1 to 1 | [++] ((++) means the inhibition is 80% or more and less than 90%) |  |  | 
2 | CCc1cc2c(C3=NN(Cc4cccc([N+](=O)[O-])c4)C(=O)CC3C)ccc(OC)n2n1 (stereo not drawn) | 1 to 10 | < 1 | [+] ((+) means the inhibition is 70% or more and less than 80%) |  |  | 
3 | CCc1cc2c(C3=NN(CCc4ccccc4)C(=O)CC3C)ccc(OC)n2n1 (stereo not drawn) | 1 to 10 | < 1 |  |  |  | 
4 | CCc1cc2c(C3=NN(Cc4cccnc4)C(=O)CC3C)cccn2n1 (stereo not drawn) | > 10 | 1 to 10 |  | > 10 | 1 to 10 | 
5 | CCc1cc2c(C3=NN(Cc4cccnc4)C(=O)CC3C)ccc(OC)n2n1 (stereo not drawn) | > 10 | 0.1 to 1 |  | > 10 | 1 to 10 | + ((+) means the inhibition is 70% or more and less than 80%)
6 | COc1ccc(C2=NN(CCO)C(=O)CC2C)c2cc(C(F)(F)F)nn12 (stereo not drawn) | > 10 | < 1 |  |  |  | 
7 | CCc1cc2c(C3=NN(Cc4ccccc4)C(=O)CC3C)ccc(OC)n2n1 (stereo not drawn) | 1 to 10 | < 1 |  |  |  | 
8 | COc1ccc(C2=NN(Cc3cccnc3)C(=O)CC2C)c2cc(C(C)C)nn12 (stereo not drawn) | > 10 | 0.1 to 1 |  |  |  | 
9 | CCc1cc2c(C3=NN(Cc4cccnc4)C(=O)CC3)cccn2n1 | > 10 | > 10 |  | > 10 | 1 to 10 | 
